# Yeast mating assay B: variants of the scFv Ab-14

Target peptide (SARS-CoV-2 spike, HR2 region): PDVDLGDISGINAS

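The parent was found by panning a naive human phage display library on the peptide. This is the validation round: designs drawn from the data on random variants, tested in the same kind of assay. Several design methods are mixed in this list. The scFvs were displayed on barcoded MATa yeast, the peptide on MATalpha yeast. Pairs that bind mate more often; barcode pairs of the diploids are counted by sequencing. Read counts were normalised to the haploid input and turned into Kd by a linear fit to BCL2-family pairs of known affinity, for each replicate. Each pool was mated in six replicate cultures.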

Each scFv is VH, three GGGGS repeats, VL, as in the parent Ab-14, and differs from it in the CDRs of the heavy chain only.
VH: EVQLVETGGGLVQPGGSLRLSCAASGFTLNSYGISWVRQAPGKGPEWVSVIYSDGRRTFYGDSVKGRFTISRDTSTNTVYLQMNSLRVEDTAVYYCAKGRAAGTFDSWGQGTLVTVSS
VL: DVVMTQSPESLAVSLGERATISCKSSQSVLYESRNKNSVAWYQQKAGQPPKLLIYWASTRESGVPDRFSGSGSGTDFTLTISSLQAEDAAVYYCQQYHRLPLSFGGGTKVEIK

Variants are written as CDR1, CDR2 and CDR3 of the heavy chain (limits as in the source). Parent: GFTLNSYGIS, VIYSDGRRTFYGDSVK, GRAAGTFDS. Each Kd is an estimate from the mating assay, the geometric mean of the replicates in which the pair was seen; lower is stronger. An entry "nd" has no value in the source: the pair was not observed among the diploids in any replicate. This suggests poor binding but is not conclusive. Where one sequence has several entries in the source, the replicates are pooled.

The variant GFTLNSYGIS, VIYADGRRTFYGDSVK, GRAAGTLDS gave 13 nM (4 of 6 replicates; controls 1 of 18).
The variant GITLNMYGIS, VIYSDGRRTFYQDSVK, GRAAGTFDS gave 130 pM (1 of 6 replicates; controls 0 of 18).
The variant GFDLDEYGIS, VIYADGMRTSYADSVK, GNVAGTFDL gave 360 pM (6 of 6 replicates; controls 0 of 18).
The variant GFSLNEYGIS, VIYSDGRRTFYGDSVK, GRTAGTFDG gave 640 pM (6 of 6 replicates; controls 0 of 18).
The variant GFDLQEYGIS, VIYADGARKSYTNSVK, GVVGGTMDV gave 510 pM (4 of 6 replicates; controls 0 of 18).
The variant GFDLNEYGIS, VIYADGVRKFYADKVK, GENAGTFDV gave 2.2 nM (6 of 6 replicates; controls 0 of 18).
The variant GFTLNKYGIS, VIYSDGLRTFYGDSVK, GRAAGTTDS gave nd (0 of 6 replicates; controls 0 of 18).
The variant HFSLNSYGIS, VIYSDGRRTFYHDSVK, GQTAGTFDS gave 1.4 nM (6 of 6 replicates; controls 0 of 18).
The variant HFTLNEYGIS, VIYSDGRRTFYGDSVK, GRTAGTFDS gave 14 nM (5 of 6 replicates; controls 0 of 18).
The variant GFQIDEYGIS, VIYADGLRTVYDDAVK, GSDTGLFMI gave 2.2 nM (6 of 6 replicates; controls 0 of 18).
The variant GFDLEEYGIS, VIYADGMRTAYSDSVK, GENAGTFDV gave 640 pM (6 of 6 replicates; controls 0 of 18).
The variant GFDINEYGIS, VIYADGMRTKYSESVK, GTVDEDFNG gave nd (0 of 6 replicates; controls 0 of 18).
The variant GFNLNSYGIS, VIYSDGRRTFYGDAVK, GKTAGTFDS gave 3.0 nM (6 of 6 replicates; controls 0 of 18).
The variant GFGLNSYGIS, VIYSDGRRTFYDDSVK, GRAAGTFDS gave 110 nM (3 of 6 replicates; controls 0 of 18).
The variant GFDLNEYGIS, VIYADGRRTFYSDSVK, GENAGIFDI gave nd (0 of 6 replicates; controls 0 of 18).
The variant GFTLNSYGIS, VIYSDGRRTFYADSVK, GEAAGTFDS gave 3.3 nM (11 of 12 replicates; controls 2 of 36).
The variant GFTLNDYGIS, VIYSDGRRTFYQDSVK, GRAGGTFDS gave 11 nM (3 of 6 replicates; controls 0 of 18).
The variant GFDLNSYGIS, VIYSDGRRTFYGDMVK, GREAGTFDS gave 1.5 nM (6 of 6 replicates; controls 0 of 18).
The variant GFSLDEFGIS, VIYADGMRSAYSQNVK, GQHGGFTVS gave 870 pM (6 of 6 replicates; controls 0 of 18).
The variant GFWLNEYGIS, VIYSDGRRTFYDDSVK, GRAAGTFDS gave 20 nM (6 of 6 replicates; controls 1 of 18).
The variant GFDLNEYGIS, VIYADGKRTFYADSVK, GQVAGTFDV gave 540 pM (6 of 6 replicates; controls 0 of 18).
The variant GFKLDEYGIS, VIYADGIRVFYADSVK, GGFDGYKFI gave nd (0 of 6 replicates; controls 0 of 18).
The variant KFTLNSYGIS, VIYSDGRRTFYGDSVK, GQNAGTFDS gave 77 nM (6 of 6 replicates; controls 0 of 18).
The variant GVTLNSYGIS, VIYSDGRRTFYGDSVK, GRPAGTFDS gave nd (0 of 6 replicates; controls 0 of 18).
The variant GEDLSEYGIS, VIYADGERRSYANSVK, GGVSGNFSQ gave 120 nM (4 of 6 replicates; controls 1 of 18).
The variant GFTLNSYGIS, VIYSDGRRTFYTDSVK, GRGAGKFDS gave 3.1 nM (1 of 6 replicates; controls 0 of 18).
The variant GFDLNEYGIS, VIYADGQRKAYADDVK, GNVAGTFDV gave 380 pM (6 of 6 replicates; controls 0 of 18).
The variant GFSLNSYGIS, VIYSDGRRTFYDDSVK, GQEAGTFDS gave 930 pM (6 of 6 replicates; controls 0 of 18).
The variant GFDLNEYGIS, VIYADGQRTAYADTVK, GENAGTFDV gave 480 pM (6 of 6 replicates; controls 0 of 18).
The variant GFSLNEYGIS, VIYSDGRRTFYGDSVK, GLTAGTFDA gave 360 pM (6 of 6 replicates; controls 0 of 18).
The variant GFSLNSYGIS, VIYSDGRRTFYHDDVK, GRTAGTFDS gave 830 pM (6 of 6 replicates; controls 0 of 18).
The variant GFTLNSYGIS, VIYSDGRRTIYGDSVK, GRAAHTFDS gave nd (0 of 6 replicates; controls 0 of 18).
The variant GFDLNEYGIS, VIYADGRRTQYIDSVK, GNVAGTFDQ gave 1.1 nM (6 of 6 replicates; controls 0 of 18).
The variant GENIEEYGIS, VIYADGRRTAYAEDVK, GQSGGTIDT gave 540 pM (6 of 6 replicates; controls 0 of 18).
The variant GFTLNSYGIS, VIYSDGRRTFYNDSVK, GYVAGTFDS gave 8.3 nM (5 of 6 replicates; controls 0 of 18).
The variant KFQLNSYGIS, VIYSDGRRTFYADSVK, GRQAGTFDS gave nd (0 of 6 replicates; controls 0 of 18).
The variant GGDLNEYGIS, VIYADGVRKNYIDSVK, GQNGIVLNI gave nd (0 of 6 replicates; controls 1 of 18).
The variant GFQLDEYGIS, VIYADGIRQYYAQKFK, GYNSFDMTV gave nd (0 of 6 replicates; controls 0 of 18).
The variant GFDLDEYGIS, VIYADGQRTAYSDSVK, GNNAGTFDL gave 270 pM (6 of 6 replicates; controls 0 of 18).

A selection of 6 entries from above:

| CDR-H1 | CDR-H2 | CDR-H3 | Kd | seen in | signal with controls |
|---|---|---|---|---|---|
| GFGLNSYGIS | VIYSDGRRTFYDDSVK | GRAAGTFDS | 110 nM | 3/6 | 0/18 |
| GFSLDEFGIS | VIYADGMRSAYSQNVK | GQHGGFTVS | 870 pM | 6/6 | 0/18 |
| GFTLNSYGIS | VIYSDGRRTIYGDSVK | GRAAHTFDS | nd | 0/6 | 0/18 |
| GFTLNSYGIS | VIYSDGRRTFYADSVK | GEAAGTFDS | 3.3 nM | 11/12 | 2/36 |
| GFDLNEYGIS | VIYADGQRKAYADDVK | GNVAGTFDV | 380 pM | 6/6 | 0/18 |
| GFDLNEYGIS | VIYADGQRTAYADTVK | GENAGTFDV | 480 pM | 6/6 | 0/18 |

The authors averaged sequences with at least three values out of six and counted those with two or fewer as poor binders. Values of this round are not directly comparable with the first-round values of the same sequences. Three control strains display no target. For all heavy chain designs, 1% of the pairings with them gave a signal, with a median of 120 nM and one signal in twenty below 7.0 nM, so weak values seen in few replicates may be background. Also given: how often the same scFv was detected with the empty control strains. Of ten entries with the parent sequence, four were seen in most replicates (averages 2.2 nM to 240 nM), three in one and three in none, so single entries are noisy.

Data: MIT Lincoln Laboratory AlphaSeq set, Li et al. 2023, doi:10.1038/s41467-023-39022-2, as distributed in FLAb.